# Experimental data as given in patent US10196357B2, “Biaryl compositions and methods for modulating a kinase cascade” (Athenex, Inc., priority 2007, dated 2019).
# By UniProt entry, the sequences of proteins in these tests, tags left out. Residues count along the entry.
# UniProt P00533, 25-1210 limits assumed: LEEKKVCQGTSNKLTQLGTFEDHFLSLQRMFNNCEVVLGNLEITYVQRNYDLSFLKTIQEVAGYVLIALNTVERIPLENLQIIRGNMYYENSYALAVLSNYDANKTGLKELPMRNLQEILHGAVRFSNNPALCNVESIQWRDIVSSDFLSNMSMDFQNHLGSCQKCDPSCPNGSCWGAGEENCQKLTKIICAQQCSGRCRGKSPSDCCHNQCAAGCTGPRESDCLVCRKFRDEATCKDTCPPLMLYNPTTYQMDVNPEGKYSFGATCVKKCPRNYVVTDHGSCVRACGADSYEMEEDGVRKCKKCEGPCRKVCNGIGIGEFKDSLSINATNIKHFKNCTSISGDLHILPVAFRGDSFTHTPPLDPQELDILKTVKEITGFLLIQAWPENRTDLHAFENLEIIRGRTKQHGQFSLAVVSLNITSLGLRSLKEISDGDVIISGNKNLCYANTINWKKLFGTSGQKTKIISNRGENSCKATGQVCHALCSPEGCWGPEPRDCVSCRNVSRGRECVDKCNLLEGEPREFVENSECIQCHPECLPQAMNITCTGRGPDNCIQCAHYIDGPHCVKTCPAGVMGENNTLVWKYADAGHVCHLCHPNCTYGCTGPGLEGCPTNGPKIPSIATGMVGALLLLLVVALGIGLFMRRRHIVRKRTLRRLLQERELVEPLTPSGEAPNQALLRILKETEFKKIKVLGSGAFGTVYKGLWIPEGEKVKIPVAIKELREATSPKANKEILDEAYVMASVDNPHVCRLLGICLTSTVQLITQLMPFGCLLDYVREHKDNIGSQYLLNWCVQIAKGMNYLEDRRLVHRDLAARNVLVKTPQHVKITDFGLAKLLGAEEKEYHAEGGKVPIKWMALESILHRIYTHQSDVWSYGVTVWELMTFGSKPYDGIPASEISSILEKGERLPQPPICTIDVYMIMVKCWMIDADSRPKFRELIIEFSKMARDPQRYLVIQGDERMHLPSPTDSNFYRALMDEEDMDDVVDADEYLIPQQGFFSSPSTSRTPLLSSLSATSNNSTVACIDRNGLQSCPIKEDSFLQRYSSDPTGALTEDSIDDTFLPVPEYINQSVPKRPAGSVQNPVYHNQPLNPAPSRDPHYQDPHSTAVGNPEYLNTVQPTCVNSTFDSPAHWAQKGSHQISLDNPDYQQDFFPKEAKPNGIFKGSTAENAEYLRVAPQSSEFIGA
# UniProt P21802, 22-821 limits assumed: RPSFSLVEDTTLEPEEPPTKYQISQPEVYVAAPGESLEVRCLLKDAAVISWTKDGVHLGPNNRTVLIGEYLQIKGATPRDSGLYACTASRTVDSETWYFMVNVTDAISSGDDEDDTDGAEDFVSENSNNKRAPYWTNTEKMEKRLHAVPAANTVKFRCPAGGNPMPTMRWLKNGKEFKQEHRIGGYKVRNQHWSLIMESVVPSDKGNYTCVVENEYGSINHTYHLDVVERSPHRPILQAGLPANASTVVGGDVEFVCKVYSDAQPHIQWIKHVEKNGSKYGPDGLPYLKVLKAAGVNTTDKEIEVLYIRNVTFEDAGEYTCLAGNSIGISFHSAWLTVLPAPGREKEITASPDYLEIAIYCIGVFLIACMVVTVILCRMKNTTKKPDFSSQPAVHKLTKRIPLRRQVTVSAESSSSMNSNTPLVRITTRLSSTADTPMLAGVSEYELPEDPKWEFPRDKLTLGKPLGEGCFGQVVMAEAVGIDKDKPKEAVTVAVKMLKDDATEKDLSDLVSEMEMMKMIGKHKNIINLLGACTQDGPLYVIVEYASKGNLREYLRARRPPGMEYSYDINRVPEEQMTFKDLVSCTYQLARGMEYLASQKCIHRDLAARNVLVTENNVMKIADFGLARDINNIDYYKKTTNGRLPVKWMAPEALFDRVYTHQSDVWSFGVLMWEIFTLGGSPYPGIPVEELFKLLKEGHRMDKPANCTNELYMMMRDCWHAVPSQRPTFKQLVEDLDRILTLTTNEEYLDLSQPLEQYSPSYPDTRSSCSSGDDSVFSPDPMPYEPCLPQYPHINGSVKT
# UniProt P06241, whole entry: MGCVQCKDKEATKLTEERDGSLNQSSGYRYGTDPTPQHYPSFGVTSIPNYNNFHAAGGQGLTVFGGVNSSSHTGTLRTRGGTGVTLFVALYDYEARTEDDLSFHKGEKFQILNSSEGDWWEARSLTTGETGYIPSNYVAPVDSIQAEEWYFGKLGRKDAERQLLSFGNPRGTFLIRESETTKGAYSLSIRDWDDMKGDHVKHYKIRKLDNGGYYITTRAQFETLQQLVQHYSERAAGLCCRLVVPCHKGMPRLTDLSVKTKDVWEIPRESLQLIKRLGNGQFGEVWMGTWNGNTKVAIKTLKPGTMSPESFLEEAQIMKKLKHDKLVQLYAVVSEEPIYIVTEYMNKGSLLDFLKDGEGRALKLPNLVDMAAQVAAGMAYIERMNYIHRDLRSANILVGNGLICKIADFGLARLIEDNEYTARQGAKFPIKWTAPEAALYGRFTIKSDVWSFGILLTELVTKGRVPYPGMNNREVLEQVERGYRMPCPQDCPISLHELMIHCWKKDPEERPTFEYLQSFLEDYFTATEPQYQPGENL
# UniProt P08069, 31-1367 limits assumed: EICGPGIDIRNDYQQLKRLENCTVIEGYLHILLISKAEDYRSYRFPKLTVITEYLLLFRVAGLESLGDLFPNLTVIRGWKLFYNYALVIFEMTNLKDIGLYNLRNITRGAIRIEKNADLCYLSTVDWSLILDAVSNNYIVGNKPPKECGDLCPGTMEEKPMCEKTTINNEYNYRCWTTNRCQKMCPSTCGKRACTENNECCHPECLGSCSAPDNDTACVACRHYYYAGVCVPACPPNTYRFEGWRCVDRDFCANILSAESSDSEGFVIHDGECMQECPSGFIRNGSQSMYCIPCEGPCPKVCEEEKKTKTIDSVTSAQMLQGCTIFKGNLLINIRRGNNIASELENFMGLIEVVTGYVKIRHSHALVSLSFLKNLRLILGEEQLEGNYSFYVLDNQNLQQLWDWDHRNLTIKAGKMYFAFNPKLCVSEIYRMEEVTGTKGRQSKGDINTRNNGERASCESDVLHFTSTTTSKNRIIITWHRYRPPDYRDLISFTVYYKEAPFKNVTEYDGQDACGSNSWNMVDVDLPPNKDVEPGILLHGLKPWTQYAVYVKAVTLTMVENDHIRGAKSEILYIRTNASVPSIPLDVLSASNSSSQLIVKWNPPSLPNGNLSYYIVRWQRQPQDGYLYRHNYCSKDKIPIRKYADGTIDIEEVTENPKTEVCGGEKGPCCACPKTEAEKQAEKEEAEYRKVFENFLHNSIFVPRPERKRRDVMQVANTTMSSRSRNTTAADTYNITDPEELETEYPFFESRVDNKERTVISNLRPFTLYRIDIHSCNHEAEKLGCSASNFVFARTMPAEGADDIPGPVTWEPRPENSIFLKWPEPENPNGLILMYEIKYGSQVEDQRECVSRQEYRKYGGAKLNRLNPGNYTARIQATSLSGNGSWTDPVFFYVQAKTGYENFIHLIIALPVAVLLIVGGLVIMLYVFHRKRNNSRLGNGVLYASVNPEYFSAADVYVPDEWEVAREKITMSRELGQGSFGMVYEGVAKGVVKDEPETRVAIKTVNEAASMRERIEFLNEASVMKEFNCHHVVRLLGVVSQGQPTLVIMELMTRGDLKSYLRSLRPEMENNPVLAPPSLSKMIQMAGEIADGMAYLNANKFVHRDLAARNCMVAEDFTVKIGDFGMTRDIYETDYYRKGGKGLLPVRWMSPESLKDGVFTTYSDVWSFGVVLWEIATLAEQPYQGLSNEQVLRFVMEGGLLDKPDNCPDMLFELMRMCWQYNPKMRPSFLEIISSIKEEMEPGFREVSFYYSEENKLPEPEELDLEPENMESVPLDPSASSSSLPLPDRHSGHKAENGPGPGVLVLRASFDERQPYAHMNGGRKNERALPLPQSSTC
# UniProt P06239, whole entry: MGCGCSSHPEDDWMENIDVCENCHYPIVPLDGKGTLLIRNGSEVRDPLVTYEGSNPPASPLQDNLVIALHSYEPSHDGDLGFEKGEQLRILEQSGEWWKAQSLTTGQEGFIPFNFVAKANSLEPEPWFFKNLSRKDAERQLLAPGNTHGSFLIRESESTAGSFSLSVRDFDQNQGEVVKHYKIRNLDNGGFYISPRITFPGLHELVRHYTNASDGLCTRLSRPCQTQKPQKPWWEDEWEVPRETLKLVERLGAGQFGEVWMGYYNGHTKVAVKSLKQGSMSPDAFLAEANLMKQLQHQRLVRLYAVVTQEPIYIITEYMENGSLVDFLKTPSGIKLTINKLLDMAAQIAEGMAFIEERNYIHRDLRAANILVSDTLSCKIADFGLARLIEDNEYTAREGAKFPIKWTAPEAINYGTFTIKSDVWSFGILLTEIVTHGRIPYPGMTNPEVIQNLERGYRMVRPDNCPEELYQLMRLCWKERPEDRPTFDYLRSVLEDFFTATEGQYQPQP
# UniProt P07948, whole entry: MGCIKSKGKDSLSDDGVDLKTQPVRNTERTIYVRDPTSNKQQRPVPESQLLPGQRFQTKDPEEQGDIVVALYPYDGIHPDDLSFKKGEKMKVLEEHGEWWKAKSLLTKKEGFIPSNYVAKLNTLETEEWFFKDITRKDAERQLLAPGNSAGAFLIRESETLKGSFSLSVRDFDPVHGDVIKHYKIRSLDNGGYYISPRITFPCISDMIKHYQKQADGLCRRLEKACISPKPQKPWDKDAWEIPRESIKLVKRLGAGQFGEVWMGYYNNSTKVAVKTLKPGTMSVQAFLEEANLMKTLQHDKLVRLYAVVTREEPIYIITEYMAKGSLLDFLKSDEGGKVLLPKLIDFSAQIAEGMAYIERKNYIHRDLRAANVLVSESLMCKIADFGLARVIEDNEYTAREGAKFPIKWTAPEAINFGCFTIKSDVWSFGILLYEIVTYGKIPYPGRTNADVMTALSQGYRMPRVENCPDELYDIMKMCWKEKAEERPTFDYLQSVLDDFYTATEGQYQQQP
# UniProt P28482, whole entry: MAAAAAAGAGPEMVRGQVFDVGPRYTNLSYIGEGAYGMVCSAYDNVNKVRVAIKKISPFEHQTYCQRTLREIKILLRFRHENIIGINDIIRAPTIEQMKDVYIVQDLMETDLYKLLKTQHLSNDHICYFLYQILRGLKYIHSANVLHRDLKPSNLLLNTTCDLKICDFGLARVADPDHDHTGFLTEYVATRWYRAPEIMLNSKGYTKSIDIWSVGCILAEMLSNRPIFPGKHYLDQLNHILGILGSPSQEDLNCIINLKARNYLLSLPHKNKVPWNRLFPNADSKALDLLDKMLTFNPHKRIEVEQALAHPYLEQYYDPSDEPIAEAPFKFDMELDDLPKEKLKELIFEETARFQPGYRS
# UniProt P07947, whole entry: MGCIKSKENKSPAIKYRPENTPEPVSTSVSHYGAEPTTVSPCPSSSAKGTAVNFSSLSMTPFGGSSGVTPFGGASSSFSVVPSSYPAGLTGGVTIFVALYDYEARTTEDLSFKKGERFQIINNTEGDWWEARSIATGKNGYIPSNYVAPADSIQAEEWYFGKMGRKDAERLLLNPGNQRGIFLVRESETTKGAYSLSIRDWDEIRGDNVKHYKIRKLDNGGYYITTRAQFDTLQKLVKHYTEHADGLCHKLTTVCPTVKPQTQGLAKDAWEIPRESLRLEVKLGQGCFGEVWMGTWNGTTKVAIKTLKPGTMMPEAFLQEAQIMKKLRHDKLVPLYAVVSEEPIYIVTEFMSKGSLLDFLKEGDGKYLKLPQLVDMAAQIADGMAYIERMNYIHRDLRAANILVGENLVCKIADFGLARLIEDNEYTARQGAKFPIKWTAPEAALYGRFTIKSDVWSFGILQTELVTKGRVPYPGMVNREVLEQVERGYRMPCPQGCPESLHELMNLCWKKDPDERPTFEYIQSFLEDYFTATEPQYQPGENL
# UniProt P43403, whole entry: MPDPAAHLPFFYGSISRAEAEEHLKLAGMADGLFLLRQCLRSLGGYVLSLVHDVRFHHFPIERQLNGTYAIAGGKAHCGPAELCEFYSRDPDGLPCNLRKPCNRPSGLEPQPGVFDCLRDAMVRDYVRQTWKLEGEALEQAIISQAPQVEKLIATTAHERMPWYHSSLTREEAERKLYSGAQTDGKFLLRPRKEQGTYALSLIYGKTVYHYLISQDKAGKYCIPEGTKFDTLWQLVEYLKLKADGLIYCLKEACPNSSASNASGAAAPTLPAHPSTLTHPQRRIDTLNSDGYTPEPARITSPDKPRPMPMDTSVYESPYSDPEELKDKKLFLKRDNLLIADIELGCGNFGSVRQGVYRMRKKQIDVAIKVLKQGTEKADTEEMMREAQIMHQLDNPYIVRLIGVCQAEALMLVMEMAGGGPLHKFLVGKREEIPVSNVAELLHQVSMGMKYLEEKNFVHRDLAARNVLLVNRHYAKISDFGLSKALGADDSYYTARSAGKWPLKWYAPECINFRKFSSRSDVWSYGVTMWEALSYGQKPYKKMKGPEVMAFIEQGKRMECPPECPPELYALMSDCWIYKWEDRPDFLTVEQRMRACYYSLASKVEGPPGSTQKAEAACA
# Assays:
# HT29 cell line = test: BrdU cell growth inhibition, HT29; type: cell-based, human; conditions: 5 uM
# c-Src 3T3 cells = test: BrdU cell growth inhibition, c-Src 3T3; type: cell-based, mouse
# Abl(h) = Abl(h) (Homo sapiens, UniProt P00519); test: isolated kinase activity, Abl; type: biochemical; conditions: compound @ 10 μM
# EGFR(h) = EGFR(h) (Homo sapiens, UniProt P00533); test: isolated kinase activity, EGFR; type: biochemical; conditions: compound @ 10 μM
# FGFR2(h) = FGFR2(h) (Homo sapiens, UniProt P21802); test: isolated kinase activity, FGFR2; type: biochemical; conditions: compound @ 10 μM
# Fyn(h) = Fyn(h) (Homo sapiens, UniProt P06241); test: isolated kinase activity, Fyn; type: biochemical; conditions: compound @ 10 μM
# IGF-1R(h) = IGF-1R(h) (Homo sapiens, UniProt P08069); test: isolated kinase activity, IGF-1R; type: biochemical; conditions: compound @ 10 μM
# Lck(h) = Lck(h) (Homo sapiens, UniProt P06239); test: isolated kinase activity, Lck; type: biochemical; conditions: compound @ 10 μM
# Lyn(h) = Lyn(h) (Homo sapiens, UniProt P07948); test: isolated kinase activity, Lyn; type: biochemical; conditions: compound @ 10 μM
# MAPK2(h) = MAPK2(h) (Homo sapiens, UniProt P28482); test: isolated kinase activity, MAPK2; type: biochemical; conditions: compound @ 10 μM
# PDGFRβ(h) = PDGFRβ(h) (Homo sapiens, UniProt P09619); test: isolated kinase activity, PDGFRβ; type: biochemical; conditions: compound @ 10 μM
# Pyk2(h) = Pyk2(h) (Homo sapiens, UniProt Q14289); test: isolated kinase activity, Pyk2; type: biochemical; conditions: compound @ 10 μM
# Yes(h) = Yes(h) (Homo sapiens, UniProt P07947); test: isolated kinase activity, Yes; type: biochemical; conditions: compound @ 10 μM
# ZAP-70(h) = ZAP-70(h) (Homo sapiens, UniProt P43403); test: isolated kinase activity, ZAP-70; type: biochemical; conditions: compound @ 10 μM
# PI3 kinase = test: isolated kinase activity, PI3 kinase; type: biochemical; conditions: compound @ 10 μM
# FAK Tyr 925 = test: intracellular phosphorylation, FAK Tyr 925; type: cell-based; conditions: whole cells
# Shc Y239/240 = test: intracellular phosphorylation, Shc Y239/240; type: cell-based; conditions: whole cells
# Paxillin Y-31 = test: intracellular phosphorylation, Paxillin Y-31; type: cell-based; conditions: c-Src527F/NIH-3T3 cells
# [1] = test system: total phosphotyrosine levels; test: total phosphotyrosine levels; type: cell-based; conditions: HT29 and c-Src527F/NIH-3T3 cells
# [2] = test system: PDGF receptor tyrosine kinase Y572/574; test: PDGF receptor autophosphorylation in cells; type: cell-based; conditions: c-Src527F/NIH-3T3 cells
# FAK Y397 = test: FAK autophosphorylation in cells; type: cell-based; conditions: c-Src527F/NIH3T3 cells
# [3] = test system: EGFR tyrosine kinase autophosphorylation; test: EGFR tyrosine kinase autophosphorylation in cells; type: cell-based; conditions: tumor cells, FIG. 9; EGF Y845
# [4] = noise-induced hearing loss; type: in vivo, Chinchillas; conditions: chinchilla ears treated on round window, 4 kHz band noise 105 dB SPL 4 h, days 1, 7, 21; relative to control ears
# [5] = test system: osteoclast precursors derived from spleen cells; test: osteoclast formation from spleen cells; type: cell-based; conditions: 5 days, RANKL and M-CSF, vs untreated control
# osteoclasts = test: osteoclast survival; type: cell-based; conditions: 48 hours, RANKL and M-CSF, vs untreated control
# [6] = test system: osteoclasts on bone slices; test: osteoclast formation on bone slices; type: cell-based; conditions: vs untreated control
# [7] = test system: resorption pits on bone slices; test: resorption pit formation on bone slices; type: cell-based; conditions: vs untreated control
smiles,measurement,setting,value
COc1cc2c(Nc3c(Cl)ccc4c3OCO4)ncnc2cc1OCCCN1CCCCC1,"HT-29 Growth, % of Control Mean, n = 3",HT29 cell line,"T (T = Cytotoxic Effect on Cells, negative growth)"
same,"c-Src 3T3 Growth, % of Control Mean, n = 3",c-Src 3T3 cells; 1.0 uM,"T (T = Cytotoxic Effect on Cells, negative growth)"
same,"c-Src 3T3 Growth, % of Control Mean, n = 3",c-Src 3T3 cells; 10 uM,"T (T = Cytotoxic Effect on Cells, negative growth)"
same,percent activity of isolated kinase relative to control,Abl(h),1%
same,percent activity of isolated kinase relative to control,EGFR(h),3%
same,percent activity of isolated kinase relative to control,FGFR2(h),94%
same,percent activity of isolated kinase relative to control,Fyn(h),2%
same,percent activity of isolated kinase relative to control,IGF-1R(h),110%
same,percent activity of isolated kinase relative to control,Lck(h),1%
same,percent activity of isolated kinase relative to control,Lyn(h),0%
same,percent activity of isolated kinase relative to control,MAPK2(h),105%
same,percent activity of isolated kinase relative to control,PDGFRβ(h),98%
same,percent activity of isolated kinase relative to control,Pyk2(h),43%
same,percent activity of isolated kinase relative to control,Yes(h),1%
same,percent activity of isolated kinase relative to control,ZAP-70(h),97%
same,percent activity of isolated kinase relative to control,PI3 kinase,99%
same,phosphorylation of FAK Tyr 925 (Src transphosphorylation),FAK Tyr 925,inhibited
same,phosphorylation of Shc Y239/240 (Src transphosphorylation),Shc Y239/240,inhibited
same,phosphorylation of Paxillin Y-31 (Src transphosphorylation),Paxillin Y-31,inhibited
same,total phosphotyrosine levels,[1],reduction in the total phosphotyrosine levels
same,PDGF receptor Y572/574 autophosphorylation,[2],dose response reduction
same,FAK Y397 autophosphorylation,FAK Y397,some inhibition
same,EGFR tyrosine kinase autophosphorylation,[3],potently inhibits
same,average dB threshold shifts,[4],lower
same,formation of osteoclasts (staining),[5],inhibited
same,number of TRAP-positive osteoclasts (formation),[5],reduced
same,number of TRAP-positive osteoclasts (survival),osteoclasts,reduced
same,survival of osteoclasts (staining),osteoclasts,inhibited
same,number of osteoclasts on the bone slices,[6]; FIG. 20A,reduced
same,number of TRAP-positive osteoclasts on the bone slices,[6]; FIG. 21A,reduced
same,number of resorption pits on the bone slices,[7]; FIG. 20B,reduced
same,number of resorption pits on the bone slices (Toluidine Blue),[7]; FIG. 21B,reduced
